The series concerns porcine intestinal jejunal tissue. Conditions: FD4 50 μM apical, two hour incubation.

Where two headings read alike, the source gives them in different places.

On to “fluorescein isothiocyanate-dextran [FD4]”, for which the “Leakage of FD4 to the basolateral compartment” value (non-viable, damaged or wrongly capped segments) is listed as “up to 7 % of the dose” and the “Leakage of FD4 to the basolateral compartment” value (viable tissue) is listed as “below 0.3 % of the dose”.

The values are drawn from patent US10690657B2, “Epithelial tissue model” (Nederlandse Organisatie voor …, priority 2012, dated 2020).
